Values quoted from earlier work as cited in PMC3729426 (Chemistry (Weinheim an der Bergstrasse, Germany), 2012).

Test system: MDCK epithelial cells
Details: cited from earlier work

## nonaarginine
  half life of proteolytic degradation: ~ 1400 minutes
